# pKd: −log10 of the molar value.
# Molecular target: gp41 hydrophobic pocket (Fe(envC)3) (Human immunodeficiency virus type 1 group M subtype B, UniProt P04578)
# Assay: Surface plasmon resonance
# Type: binding, HIV-1
# Details: for pKd: kd/ka, SPR 1:1 binding kinetic analysis; for ka1 / ka2: bivalent binding model; for kon: pH 7, read-out: ka, SPR 1:1 binding kinetic analysis, RUmax fixed
smiles,measurement,value
"Nc1ccc(C(=O)N[C@@H](Cc2c[nH]c3ccccc23)C(=O)O)cc1OCCc1c[nH]c2ccccc12 [Compound 3, H2N-[Trp]-Trp-OH]",pKd,4.80
"Nc1ccc(C(=O)N[C@@H](Cc2c[nH]c3ccccc23)C(=O)O)cc1OCc1ccc(Cl)cc1 [Compound 4, H2N-[Phe4Cl]-Trp-OH]",pKd,4.92
O=C(CCC(=O)Nc1ccc(C(=O)N[C@@H](Cc2c[nH]c3ccccc23)C(=O)O)cc1OCCc1c[nH]c2ccccc12)NCCOCCOCCOCCNC(=O)CCC(=O)Nc1ccc(C(=O)N[C@@H](Cc2c[nH]c3ccccc23)C(=O)O)cc1OCCc1c[nH]c2ccccc12 [Compound 7],ka1,2691 M⁻¹ s⁻¹
same,ka2,4.54e-5 RU^−1s^−1
same,pKd,4.80
same,kon,3700 M⁻¹ s⁻¹
O=C(CCC(=O)Nc1ccc(C(=O)N[C@@H](Cc2c[nH]c3ccccc23)C(=O)O)cc1OCc1ccc(Cl)cc1)NCCOCCOCCOCCNC(=O)CCC(=O)Nc1ccc(C(=O)N[C@@H](Cc2c[nH]c3ccccc23)C(=O)O)cc1OCc1ccc(Cl)cc1 [Compound 8],ka1,1489 M⁻¹ s⁻¹
same,ka2,2.27e-5 RU^−1s^−1
same,pKd,4.68
same,kon,1800 M⁻¹ s⁻¹
O=C(CCc1c[nH]c2ccccc12)NCCCCCC(=O)Nc1ccc(C(=O)N[C@@H](Cc2c[nH]c3ccccc23)C(=O)O)cc1OCCc1c[nH]c2ccccc12 [Compound 10],kon,11000 M⁻¹ s⁻¹
O=C(CCc1c[nH]c2ccccc12)NCCCCCC(=O)Nc1ccc(C(=O)N[C@@H](Cc2c[nH]c3ccccc23)C(=O)O)cc1OCc1ccc(Cl)cc1 [Compound 11],pKd,4.85
same,kon,13700 M⁻¹ s⁻¹

# Source: PMC5260928 (Bioorganic & medicinal chemistry, 2016)
